For the assay, the target named is Recombinant human DPP1 enzyme (Homo sapiens (Human), UniProt P53634). The following applies: DPP1 inhibitory activity, substrate Gly-Arg-AMC.

By UniProt entry, the sequences of proteins in these tests, tags left out. Residues count along the entry.
UniProt P53634, 395-463: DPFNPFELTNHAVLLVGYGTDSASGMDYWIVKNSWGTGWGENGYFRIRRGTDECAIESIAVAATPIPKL
UniProt P53634, 25-134: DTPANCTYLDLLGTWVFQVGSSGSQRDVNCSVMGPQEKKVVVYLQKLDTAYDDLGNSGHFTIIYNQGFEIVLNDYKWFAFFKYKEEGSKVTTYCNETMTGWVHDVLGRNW
UniProt P53634, 231-394: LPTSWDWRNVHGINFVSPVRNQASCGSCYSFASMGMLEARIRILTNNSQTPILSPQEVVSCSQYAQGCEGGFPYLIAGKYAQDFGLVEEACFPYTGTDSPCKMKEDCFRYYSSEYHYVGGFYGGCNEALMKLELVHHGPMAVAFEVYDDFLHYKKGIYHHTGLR

SMILES strings stand for the structures.

As usually defined, the IC50 is the concentration needed to halve the response being measured. As to `Cn1c(=O)oc2ccc(-c3ccc(C[C@@H](C#N)NC(=O)[C@@H]4CNCCCO4)c(F)c3)cc21` [Compound I, (S)—N—((S)-1-cyano-2-(2-fluoro-4-(3-methyl-2-oxo-2,3-dihydrobenzo[d]oxazol-5-yl)phenyl)ethyl)-1,4-oxazepane-2-carboxamide], the half-inhibitory concentration (IC50) amounted to 1.6 nM.

The record behind these values is patent US20250163036A1, “DIPEPTIDYL PEPTIDASE 1 INHIBITOR POLYMORPH, PREPARATION METHOD AND USE THEREFOR” (HAISCO PHARMACEUTICALS PTE. LTD., priority 2022, published 2025).
